{
  "source": "patent US4191688A",
  "about": "“Amides of leurosine, leuroformine, desacetylleurosine and desacetylleuroformine” (Eli Lilly and Company, priority 1978, dated 1980)",
  "tested_on": "P388 leukemia",
  "assay": "Activity against P388 leukemia in mice",
  "assay_type": "in vivo",
  "conditions": "15 and 30 mg/kg level on three occasions, 3 days apart",
  "procedure": "Bis[β-(4-desacetylleurosine C-3 carboxamide)ethyl]disulfide disulfate was active against the P388 leukemia in mice, when administered at the 15 and 30 mg/kg level on three occasions, 3 days apart. 55 and 46 percent prolongation of survival time respectively were observed.",
  "data": [
    {"compound": "CCC12CN3CCc4c([nH]c5ccccc45)C(C(=O)OC)(c4cc5c(cc4OC)N(C)C4C(O)(C(=O)NCCSSCCNC(=O)C6(O)C(O)C7(CC)C=CCN8CCC9(c%10cc(C%11(C(=O)OC)CC%12CN(CCc%13c%11[nH]c%11ccccc%13%11)CC%11(CC)OC%12%11)c(OC)cc%10N(C)C69)C87)C(O)C6(CC)C=CCN7CCC54C76)CC(C3)C1O2", "note": "(stereo not drawn) [Bis[β-(4-desacetylleurosine C-3 carboxamide)ethyl]disulfide disulfate]", "values": [
      {"measurement": "activity against P388 leukemia", "value": "active"}
    ]}
  ]
}
